Target: T1, NSD2 (Homo sapiens, UniProt O96028)
T1 construct: Full Length; purchased RBC (read as Reaction Biology Corporation, named)
T1 sequence (O96028 1-1365): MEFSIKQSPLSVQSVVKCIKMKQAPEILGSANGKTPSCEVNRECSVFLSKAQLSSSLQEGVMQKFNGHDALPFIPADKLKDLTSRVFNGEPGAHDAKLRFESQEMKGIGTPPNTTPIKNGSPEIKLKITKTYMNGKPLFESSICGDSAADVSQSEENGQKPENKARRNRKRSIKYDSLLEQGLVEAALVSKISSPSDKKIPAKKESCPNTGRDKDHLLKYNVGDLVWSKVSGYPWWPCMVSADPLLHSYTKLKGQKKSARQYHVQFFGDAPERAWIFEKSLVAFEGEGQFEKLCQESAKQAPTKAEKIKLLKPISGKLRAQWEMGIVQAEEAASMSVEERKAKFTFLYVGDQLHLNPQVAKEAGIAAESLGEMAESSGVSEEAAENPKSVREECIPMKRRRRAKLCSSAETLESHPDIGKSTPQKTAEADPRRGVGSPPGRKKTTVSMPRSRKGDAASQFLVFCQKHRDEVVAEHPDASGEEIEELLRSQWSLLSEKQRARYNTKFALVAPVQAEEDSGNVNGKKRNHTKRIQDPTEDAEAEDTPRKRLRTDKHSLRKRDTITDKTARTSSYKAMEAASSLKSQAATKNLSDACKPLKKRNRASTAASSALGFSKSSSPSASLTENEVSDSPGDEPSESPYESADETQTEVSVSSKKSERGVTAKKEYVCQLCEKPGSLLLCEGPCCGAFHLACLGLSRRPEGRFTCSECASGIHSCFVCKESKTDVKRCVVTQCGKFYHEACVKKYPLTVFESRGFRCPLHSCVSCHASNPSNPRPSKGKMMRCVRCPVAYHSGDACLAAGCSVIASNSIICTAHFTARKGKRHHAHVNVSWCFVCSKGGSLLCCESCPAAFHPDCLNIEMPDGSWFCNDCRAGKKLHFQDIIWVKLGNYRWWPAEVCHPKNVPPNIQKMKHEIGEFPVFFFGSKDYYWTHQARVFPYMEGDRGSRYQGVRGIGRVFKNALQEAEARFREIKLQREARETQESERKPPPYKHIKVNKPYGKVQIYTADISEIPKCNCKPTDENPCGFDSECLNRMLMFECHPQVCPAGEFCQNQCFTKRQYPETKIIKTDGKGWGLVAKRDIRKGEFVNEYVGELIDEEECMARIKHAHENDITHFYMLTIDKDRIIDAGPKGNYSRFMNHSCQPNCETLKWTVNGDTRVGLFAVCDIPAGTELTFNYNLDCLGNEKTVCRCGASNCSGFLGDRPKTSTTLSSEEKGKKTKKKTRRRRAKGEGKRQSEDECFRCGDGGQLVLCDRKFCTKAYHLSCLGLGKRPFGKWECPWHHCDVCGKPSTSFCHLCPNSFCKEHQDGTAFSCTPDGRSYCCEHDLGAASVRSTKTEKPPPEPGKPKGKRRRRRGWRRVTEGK
Experiment: Histone methyltransferase enzymatic assay, NSD2
Format: biochemical
Description: Histone methyltransferase assays were performed in 96-well half-area optiplates (PerkinElmer) at room temperature. All concentrations are final unless noted otherwise. Compounds were serially diluted in DMSO and the final DMSO concentration was 1%. A 24 μL reaction mixture contained compound, enzyme, 200 nM of nucleosome or histone substrate, 400 nM ^3H-SAM (83.1 Ci/mmol), 50 mM Tris-HCl (pH 8.0), 50 mM NaCl, 5 mM MgCl2, 1 mM DTT, and 0.01% Tween-20. The plate was sealed, mixed on a Titramax plate shaker at 1200 rpm for 30 sec, and incubated at room temperature for 60 min. The reaction was quenched by addition of 24 μL mixture containing 5 mg/mL PVT-PEI beads and 300 μM unlabeled SAM in water. The plate was sealed, mixed as previously noted, incubated overnight, and read on a TopCount plate reader (PerkinElmer).
Data was analyzed using GraphPad Prism 6.0 (La Jolla, CA). […] IC50 values were calculated as an average of at least two independent experiments.

- IC50: 11 µM
SMILES: Nc1ncnc2c1ncn2[C@@H]1O[C@H](CSCC[C@H](N)C(=O)O)[C@@H](O)[C@H]1O [SAH, S-(5′-Adenosyl)-L-homocysteine, reference compound]

From PMC9728921, “Characterization of a KDM5 small molecule inhibitor with antiviral activity against hepatitis B virus” (PLOS ONE, 2022)
